Values quoted from earlier work in patent US20110217262A1, “Treatment of Ocular Surface Disorders by Increasing Conjunctival Vascular Permeability” (priority 2010, published 2011).

Experiments:
[1] = system: human corneal and conjunctival cells lines; settings: cited from earlier work
[2] = system: corneal erosions in a rat model; settings: cited from earlier work

## Albumin: highly stable protein found at a much higher concentration in serum than in tears
[1]
  apoptosis of corneal and conjunctival cells: inhibit apoptosis
[2]
  healing of corneal erosions: promote healing of corneal erosions
